Laboratory results taken from patent publication US11970474B2, “Substituted benzodiazoles and use thereof in therapy” (THOMAS HELLEDAYS STIFTELSE FÖR MEDICINSK FORSKNING, priority 2018, dated 2024).

The chains behind the UniProt entries cited, without tags or fusion partners.
UniProt O15527, whole entry: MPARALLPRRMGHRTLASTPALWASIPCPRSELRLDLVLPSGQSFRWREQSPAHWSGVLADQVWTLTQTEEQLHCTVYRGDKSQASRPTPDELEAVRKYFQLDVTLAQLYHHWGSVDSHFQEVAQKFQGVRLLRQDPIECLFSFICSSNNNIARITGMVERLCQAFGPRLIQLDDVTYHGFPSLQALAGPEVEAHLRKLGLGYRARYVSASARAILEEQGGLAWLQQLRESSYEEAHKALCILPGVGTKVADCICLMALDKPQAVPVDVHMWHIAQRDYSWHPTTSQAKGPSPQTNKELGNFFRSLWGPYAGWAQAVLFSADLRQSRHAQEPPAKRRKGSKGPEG

Target: OGG1 (Homo sapiens (Human), UniProt O15527)
Experiment: In vitro OGG1 activity assay
Assay type: biochemical
Settings: 800 pM OGG1 enzyme, 2 nM human APEX1, 10 nM 8-oxoA:C substrate
Experimental: Method 1: In Vitro OGG1 Activity Assay OGG1 activity is assayed by measuring the increase in fluorescence from a duplex oligonucleotide containing an OGG1 substrate and a fluorophore in close proximity that are quenched by a quencher on the complementary strand. […] OGG1 activity releases the substrate base from DNA by cleaving the N-glycosidic bond between base and deoxyribose. The resulting apurinic site is cleaved by an excessive amount APEX1 activity which cause the duplex to melt, which in turn cause the fluorophore to become unquenched. Compounds to be tested are dissolved in DMSO and nano-dispensed directly into black 384-well plates, followed by transfer of enzyme and substrate solutions. […] The fluorescent signal is recorded in a plate reader equipped with suitable filters to register fluorescein fluorescence.

Structure (SMILES) | IC50
O=C(Nc1ccc(I)cc1)N1CCC(n2c(=O)[nH]c3cc(Cl)ccc32)CC1 [Example 2, 4-(5-Chloro-2-oxo-2,3-dihydro-1H-1,3-benzodiazol-1-yl)-N-(4-iodophenyl) piperidine-1-carboxamide] | 1.69 µM
O=C(Nc1ccc(Cl)c(Cl)c1)N1CCC(n2c(=O)[nH]c3cc(Cl)ccc32)CC1 [Example 3, 4-(5-Chloro-2-oxo-2,3-dihydro-1H-1,3-benzodiazol-1-yl)-N-(3,4-dichlorophenyl)piperidine-1-carboxamide] | 1.29 µM
